Columns and labels:
[1] = Plasma concentration of intact conjugate after intravenous administration to rabbits (HP(SEC)); format: in vivo; details: 1 ml of 10 % w/v solution, male rabbit
From the text: A HP(SEC) method (High-performance size exclusion chromatography) was used for the determination of the intact dextran prodrugs and the blood concentrations of dextran-naproxen ester prodrugs (compounds in Examples 7 and 28) after intravenous administration in rabbits. […] In case of dextran-naproxen conjugates the column effluent was monitored by fluorescens detection (λex 330 nm, λem 360 nm). The other dextran conjugates were monitored spectrophotometrically in the UV range at an appropriate wavelength. […] Quantitation of the compounds was done by measurements of the areas in relation to those of standards chromatographed under the same conditions. […]
From the plasma concentration versus time profiles plasma half-lives for the T-40 and the T-70 dextran-naproxen ester conjugates of 58 and 90 min, respectively, were calculated (Fig.6). […] Although the amounts of conjugates excreted in the urine have not been measured the observed fine agreement between the experimentally and theoretically determined values of the initial plasma concentration indicates, that the conjugates are eliminated freely through the kidneys after intravenous administration without significant accumulation in the liver and other phagocytically active tissues. […]

[2] = Hydrolysis (release kinetics) of dextran ester prodrugs in aqueous buffer solution; format: physicochemical; details: 0.05 M phosphate buffer pH 7.40, 37°C

## O-[(+)-6-Methoxy-α-methyl-2-naphthaleneactyl]-dextran T-70 [Example 1]
[1]
  plasma half-lives: 90 min
[2]
  t(50%) at pH 7.40 and 37°C: 179 hours

## O-[(+)-6-Methoxy-α-methyl-2-naphthaleneactyl]-dextran T-70 [Example 2]
[2]
  t(50%) at pH 7.40 and 37°C: 177 hours

— patent publication EP0331471A1, “High molecular weight prodrug derivatives of antiinflammatory drugs” (Larsen, Claus Selch, priority 1988, dated 1989)
